Results reported in patent US11608330B2, “Methylamine derivatives as lysysl oxidase inhibitors for the treatment of cancer” (The Institute of Cancer Research: Royal Cancer Hospital, priority 2016, dated 2023).

Conditions: female, mouse, in vivo, 50 mg/kg

Row | Compound | T1/2 (po) [µM·h]
1 | NCc1ncc(S(=O)(=O)c2cc(C(=O)O)cc(-c3ccccc3)c2)s1 | 2.3e+06
2 | Cc1ccc(-c2cc(S(=O)(=O)c3ccc(CN)s3)ccc2S(C)(=O)=O)cc1 | 1e+06
